Laboratory results from patent US9867795B2, “Nitrated lipids and methods of making and using thereof” (The UAB Research Foundation, priority 2004, dated 2018).
Several values for one entry are separate records, joined by “and”; a condition that tells them apart may be missing. Equal entries are not always repeated. Entries after “also recorded” stand apart in the source; their conditions may differ.

The chains behind the UniProt entries cited, without tags or fusion partners. Residues count along the entry.
UniProt P37231, 29-505: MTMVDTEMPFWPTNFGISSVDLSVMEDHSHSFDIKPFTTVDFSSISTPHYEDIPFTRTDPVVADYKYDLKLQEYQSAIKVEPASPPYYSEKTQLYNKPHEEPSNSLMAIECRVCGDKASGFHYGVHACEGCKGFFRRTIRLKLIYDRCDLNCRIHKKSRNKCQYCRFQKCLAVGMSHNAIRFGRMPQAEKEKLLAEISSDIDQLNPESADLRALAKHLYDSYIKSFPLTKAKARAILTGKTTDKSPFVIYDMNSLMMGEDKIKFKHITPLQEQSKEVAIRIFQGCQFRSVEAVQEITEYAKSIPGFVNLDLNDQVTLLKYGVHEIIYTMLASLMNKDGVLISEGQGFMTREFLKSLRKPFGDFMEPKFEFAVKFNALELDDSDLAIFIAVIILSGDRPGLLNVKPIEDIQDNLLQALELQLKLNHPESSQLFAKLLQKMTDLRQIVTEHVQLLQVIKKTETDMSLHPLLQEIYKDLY
UniProt P37231, 238-503 limits assumed, species assumed: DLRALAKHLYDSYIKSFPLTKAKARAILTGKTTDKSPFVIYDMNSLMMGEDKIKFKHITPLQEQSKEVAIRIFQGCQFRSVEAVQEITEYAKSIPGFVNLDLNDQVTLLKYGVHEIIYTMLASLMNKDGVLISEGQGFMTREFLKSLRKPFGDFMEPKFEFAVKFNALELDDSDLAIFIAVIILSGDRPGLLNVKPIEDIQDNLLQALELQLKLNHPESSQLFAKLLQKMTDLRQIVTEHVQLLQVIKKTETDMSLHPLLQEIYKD
UniProt P10275, 669-900 limits assumed, species assumed: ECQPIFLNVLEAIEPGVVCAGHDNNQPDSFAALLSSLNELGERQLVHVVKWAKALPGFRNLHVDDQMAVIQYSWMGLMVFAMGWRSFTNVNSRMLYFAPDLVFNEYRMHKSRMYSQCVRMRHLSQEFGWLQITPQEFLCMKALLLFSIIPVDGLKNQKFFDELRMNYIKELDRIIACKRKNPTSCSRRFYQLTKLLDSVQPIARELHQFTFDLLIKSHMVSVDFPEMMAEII

Legend:
hPPARα = molecular target: T1, hPPARα (Homo sapiens, UniProt Q07869); test: CV-1 PPRE×3 TK-Luciferase transient transfection assay; type: cell-based; conditions: PPRE reporter, CV-1 cells, P≦0.05
T1 construct: For assessing full-length PPAR receptors, CV-1 cells were transiently co-transfected; expressed in transfected cells; host or cells: CV-1 cells
T1 sequence (Q07869 1-468): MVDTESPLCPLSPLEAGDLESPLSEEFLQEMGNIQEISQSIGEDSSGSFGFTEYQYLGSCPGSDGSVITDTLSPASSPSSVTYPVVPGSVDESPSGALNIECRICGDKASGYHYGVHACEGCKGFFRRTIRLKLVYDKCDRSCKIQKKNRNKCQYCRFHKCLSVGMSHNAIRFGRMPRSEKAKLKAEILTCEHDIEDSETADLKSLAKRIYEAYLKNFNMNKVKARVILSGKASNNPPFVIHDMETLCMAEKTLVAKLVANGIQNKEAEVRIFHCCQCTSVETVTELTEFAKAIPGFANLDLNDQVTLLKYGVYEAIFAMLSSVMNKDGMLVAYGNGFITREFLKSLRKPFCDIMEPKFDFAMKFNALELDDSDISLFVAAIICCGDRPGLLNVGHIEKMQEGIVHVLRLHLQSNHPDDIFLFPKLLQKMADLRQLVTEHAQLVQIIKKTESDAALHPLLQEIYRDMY
Protocol: Cell Transient Transfection Assay. CV-1 cells from ATCC (Manassas, Va.) were grown to ˜85% confluence in DMEM/F12 supplemented with 10% FBS, 1% penicillin-streptomycin. Then, cells were transiently co-transfected with a plasmid containing the luciferase gene under regulation by four Gal4 DNA binding elements (UASG×4 TK-Luciferase, a gift from Dr. Ronald M. Evans), in concert with plasmids containing the ligand binding domain for the different nuclear receptors fused to the Gal4 DNA binding domain. For assessing full-length PPAR receptors, CV-1 cells were transiently co-transfected with a plasmid containing the luciferase gene under the control of three tandem PPAR response elements (PPRE) (PPRE×3 TK-Luciferase) and hPPARγ, hPPARα or hPPARδ expression plasmids, respectively. In all cases, fluorescence protein (GFP) expression plasmid was co-transfected as the control for the transfection efficiency. Twenty-four hours after the transfection, cells were cultured for another 24 hours in Optium-MEM (Invitrogen, Carlsbad, Calif.). Then, cells were treated with different compounds as indicated in figures for 24 hours in Optium-MEM. […]
PPAR transient transfection assay. […] In all cases, fluorescence protein (GFP) expression plasmid was co-transfected as the control for transfection efficiency. […]

hPPARγ = molecular target: T2, hPPARγ (Homo sapiens, UniProt P37231); test: as above; type: cell-based; conditions: for relative activation of PPARγ, PPARα and PPARδ: dose-dependent activation
T2 construct: For assessing full-length PPAR receptors, CV-1 cells were transiently co-transfected; expressed in transfected cells; host or cells: CV-1 cells
From the text: Cell Transient Transfection Assay. […] Then, cells were transiently co-transfected with a plasmid containing the luciferase gene under regulation by four Gal4 DNA binding elements (UASG×4 TK-Luciferase, a gift from Dr. Ronald M. Evans), in concert with plasmids containing the ligand binding domain for the different nuclear receptors fused to the Gal4 DNA binding domain. For assessing full-length PPAR receptors, CV-1 cells were transiently co-transfected with a plasmid containing the luciferase gene under the control of three tandem PPAR response elements (PPRE) (PPRE×3 TK-Luciferase) and hPPARγ, hPPARα or hPPARδ expression plasmids, respectively. In all cases, fluorescence protein (GFP) expression plasmid was co-transfected as the control for the transfection efficiency. Twenty-four hours after the transfection, cells were cultured for another 24 hours in Optium-MEM (Invitrogen, Carlsbad, Calif.). Then, cells were treated with different compounds as indicated in figures for 24 hours in Optium-MEM. Reporter luciferase assay kits from Promega (Madison, Wis.) were used to measure the luciferase activity according to the manufacturer's instructions with a luminometer (Victor II, Perkin-Elmer). Luciferase activity was normalized by GFP units. Each condition was performed at least in triplicates in each experiment.
PPAR transient transfection assay. […] Twelve hours before transfection, the media was removed and antibiotic-free media was applied. Cells were transiently co-transfected with a plasmid containing the luciferase gene under the control of three tandem PPAR response elements (PPRE) (PPRE×3 TK-Luciferase) and PPARγ, PPARα or PPARδ expression plasmids, respectively. In all cases, fluorescence protein (GFP) expression plasmid was co-transfected as the control for transfection efficiency. Twenty-four hours after transfection, cells the returned to OptiMEM (Invitrogen, Carlsbad, Calif.) for 24 hr and then treated as indicated for another 24 hr. Reporter luciferase assay kits from Promega (Madison, Wis.) were used to measure the luciferase activity according to the manufacturer's instructions with a luminometer (Victor II, Perkin-Elmer). Luciferase activity was normalized by GFP units. Each condition was performed in triplicate in each experiment (n>3).

[1] = Hydrophobic stabilization and micellar partition of LNO2; type: physicochemical; conditions: plot of 1/v vs. α, FIG. 25B
From the text: Hydrophobic stabilization of LNO2—The observation that LNO2 is stable in organic solvents such as n-octanol, undergoing decay only after solvation in aqueous solutions, led us to analyze rates of •NO formation from LNO2 in the presence of non-ionic detergents. The formation of •NO was followed by EPR (measuring cPTI formation) in the presence of different concentrations of octyl-β-glucopyranoside (OG) and octyl-thio-β-glucopyranoside (OTG). The rate of •NO release was constant and not influenced by these detergents until the critical micellar concentration (CMC) for each was achieved, after which •NO formation was inhibited as the volume of the hydrophobic environment increased (FIG. 24A). Similar results were obtained when measuring •NO formation via conversion of oxymyoglobin to metmyoglobin. Apparent •NO release rates remained constant until OG concentration reached ˜2.8 mg/ml (CMC=2.77 mg/ml (11)). […] To further confirm that LNO2 was protected in lipophilic environments, LNO2 decomposition was followed by UV absorbance at 268 nm and 320 nm (FIGS. 24 C-D). […] The micellar stabilization of LNO2 was also documented in OTG-containing buffers by MS-based quantification of LNO2 after Bligh and Dyer extraction (FIG. 25A). […]

Human PPARγ1 (GST-PPARγ) = Human PPARγ1 (GST-PPARγ) (Homo sapiens, UniProt P37231); test: PPARγ competition binding assay ([^3H]Rosiglitazone displacement); conditions: read-out: binding affinity (Ki), displacement of [^3H]Rosiglitazone from PPARγ; calculated / estimated
Protocol: PPARγ Competition Binding Assay. Human PPARγ1 cDNA was inserted into pGEX from Amersham Biosciences Corp (Piscataway, N.J.) containing the gene encoding glutathione S-transferase (GST). GST-PPARγ protein induction and receptor binding was assessed as previously described (17).

[2] = molecular target: T3, PPARγ ligand binding domain (Homo sapiens, UniProt P37231); test: CV-1 Gal4 ligand binding domain luciferase reporter assay; type: cell-based; conditions: LNO2 1 μM; CV-1 cells
T3 construct: expressed in transfected cells; host or cells: CV-1 cells
Protocol: (§1) Cell Transient Transfection Assay. CV-1 cells from ATCC (Manassas, Va.) were grown to ˜85% confluence in DMEM/F12 supplemented with 10% FBS, 1% penicillin-streptomycin. Then, cells were transiently co-transfected with a plasmid containing the luciferase gene under regulation by four Gal4 DNA binding elements (UASG×4 TK-Luciferase, a gift from Dr. Ronald M. Evans), in concert with plasmids containing the ligand binding domain for the different nuclear receptors fused to the Gal4 DNA binding domain. For assessing full-length PPAR receptors, CV-1 cells were transiently co-transfected with a plasmid containing the luciferase gene under the control of three tandem PPAR response elements (PPRE) (PPRE×3 TK-Luciferase) and hPPARγ, hPPARα or hPPARδ expression plasmids, respectively. In all cases, fluorescence protein (GFP) expression plasmid was co-transfected as the control for the transfection efficiency. Twenty-four hours after the transfection, cells were cultured for another 24 hours in Optium-MEM (Invitrogen, Carlsbad, Calif.). Then, cells were treated with different compounds as indicated in figures for 24 hours in Optium-MEM. Reporter luciferase assay kits from Promega (Madison, Wis.) were used to measure the luciferase activity according to the manufacturer's instructions with a luminometer (Victor II, Perkin-Elmer). Luciferase activity was normalized by GFP units. […]

androgen receptor (AR) = molecular target: T4, androgen receptor (AR) (Homo sapiens, UniProt P10275); test: as above; type: cell-based; conditions: LNO2 1 μM; CV-1 cells
T4 construct: expressed in transfected cells; host or cells: CV-1 cells
Protocol: as §1

Row | Substance | concentration at which PPARα activation is significantly different from vehicle (hPPARα) | relative activation of PPARγ, PPARα and PPARδ (hPPARγ; PPRE reporter, CV-1 cells) | partition constant K (hydrophobic/aqueous concentration ratio), OG micelles [1] | partition constant K (hydrophobic/aqueous concentration ratio), OTG micelles [1] | Ki (Human PPARγ1 (GST-PPARγ)) | activation of PPARγ reporter gene expression compared with vehicle control (hPPARγ; 1 and 3 μM, CV-1 cells, PPRE reporter) | concentration inducing the same degree of PPARγ reporter gene expression (hPPARγ; CV-1 cells, PPRE reporter, FIG. 17B) | concentration at which PPARγ activation is significantly different from vehicle (hPPARγ; PPRE reporter, CV-1 cells, P≦0.05) | enhancement of LNO2-mediated PPARγ activation by co-addition of 9-cis-retinoic acid (hPPARγ; co-addition of the RXRα agonist 9-cis-retinoic acid) | activation of PPARγ (Gal4 LBD reporter) [2] | AR receptor activation (androgen receptor (AR))
1 | 9- and 10-nitro-9-cis-octadecenoic acid [OA-NO2] | ~300 nM | PPARγ showing the greatest response; also recorded: PPARγ>PPARδ>PPARα |  |  |  |  |  |  |  |  | 
2 | 10-nitro-9,12-octadecadienoic acid and 12-nitro-9,12-octadecadienoic acid [LNO2] |  | PPARγ showing the greatest response | 1580 | 1320 | ~133 nM and 133 nM | rivaled that induced by Ciglitazone and Rosiglitazone | 3 µM | 100 nM | ~180% | 620% | no impact
